Results on 1 compound are retold here after article PMC4315423 (Journal of Medicinal Chemistry, 2014).

Chains of the proteins cited; added tags and fusions are not shown.
UniProt P14416, whole entry: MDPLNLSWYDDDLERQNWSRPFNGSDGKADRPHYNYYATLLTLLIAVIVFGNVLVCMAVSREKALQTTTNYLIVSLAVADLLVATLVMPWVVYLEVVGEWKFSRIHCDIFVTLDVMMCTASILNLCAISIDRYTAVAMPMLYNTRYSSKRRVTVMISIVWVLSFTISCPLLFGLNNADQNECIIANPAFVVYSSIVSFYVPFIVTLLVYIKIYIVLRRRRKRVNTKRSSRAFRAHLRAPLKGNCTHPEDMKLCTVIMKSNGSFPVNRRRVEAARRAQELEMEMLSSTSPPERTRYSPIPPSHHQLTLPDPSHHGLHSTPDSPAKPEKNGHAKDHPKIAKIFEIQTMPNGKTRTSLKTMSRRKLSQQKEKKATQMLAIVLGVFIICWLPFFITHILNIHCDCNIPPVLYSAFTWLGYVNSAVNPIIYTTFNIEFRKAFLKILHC

The assay deals with D2 DAR (Homo sapiens, UniProt P14416). The experiment in a line: DiscoveRx D2 β-arrestin assay. In kind it is cell-based. To be noted: fold selectivity, D3 over D2 β-arrestin AC50.

The structures appear in SMILES notation.

Consider `CN1C(=O)c2ccccc2[S+]([O-])c2ccc(C(=O)NCCc3cccs3)cc21` (racemic) [compound 44], for which the “D3/D2 (β-arrestin)” value is “greater than 17”.
